Patent US10428080B2, “TBK/IKK inhibitor compounds and uses thereof” (Merck Patent GmbH, priority 2015, dated 2019)
Where two headings read alike, the source gives them in different places.

Chains of the proteins cited; added tags and fusions are not shown.
UniProt Q9UHD2, whole entry: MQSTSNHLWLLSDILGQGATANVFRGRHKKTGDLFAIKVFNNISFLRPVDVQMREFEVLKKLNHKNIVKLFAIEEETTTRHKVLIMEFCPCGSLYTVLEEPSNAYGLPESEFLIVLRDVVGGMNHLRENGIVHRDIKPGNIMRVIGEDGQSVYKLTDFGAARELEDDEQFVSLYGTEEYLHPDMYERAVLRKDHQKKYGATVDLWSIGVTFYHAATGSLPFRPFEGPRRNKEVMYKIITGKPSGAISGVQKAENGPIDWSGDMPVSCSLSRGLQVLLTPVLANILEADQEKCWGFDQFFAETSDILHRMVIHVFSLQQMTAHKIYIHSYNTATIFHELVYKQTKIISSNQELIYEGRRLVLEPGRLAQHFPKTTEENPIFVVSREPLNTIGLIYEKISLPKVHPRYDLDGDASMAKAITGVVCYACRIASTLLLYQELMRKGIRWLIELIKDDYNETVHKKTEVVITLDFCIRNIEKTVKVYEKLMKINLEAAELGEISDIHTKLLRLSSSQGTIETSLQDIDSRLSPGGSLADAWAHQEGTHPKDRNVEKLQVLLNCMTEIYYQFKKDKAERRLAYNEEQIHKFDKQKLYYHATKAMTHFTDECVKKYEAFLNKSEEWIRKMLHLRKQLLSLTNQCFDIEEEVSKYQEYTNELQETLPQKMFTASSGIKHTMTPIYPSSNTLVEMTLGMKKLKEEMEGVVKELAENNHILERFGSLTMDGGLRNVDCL
UniProt Q14164, whole entry: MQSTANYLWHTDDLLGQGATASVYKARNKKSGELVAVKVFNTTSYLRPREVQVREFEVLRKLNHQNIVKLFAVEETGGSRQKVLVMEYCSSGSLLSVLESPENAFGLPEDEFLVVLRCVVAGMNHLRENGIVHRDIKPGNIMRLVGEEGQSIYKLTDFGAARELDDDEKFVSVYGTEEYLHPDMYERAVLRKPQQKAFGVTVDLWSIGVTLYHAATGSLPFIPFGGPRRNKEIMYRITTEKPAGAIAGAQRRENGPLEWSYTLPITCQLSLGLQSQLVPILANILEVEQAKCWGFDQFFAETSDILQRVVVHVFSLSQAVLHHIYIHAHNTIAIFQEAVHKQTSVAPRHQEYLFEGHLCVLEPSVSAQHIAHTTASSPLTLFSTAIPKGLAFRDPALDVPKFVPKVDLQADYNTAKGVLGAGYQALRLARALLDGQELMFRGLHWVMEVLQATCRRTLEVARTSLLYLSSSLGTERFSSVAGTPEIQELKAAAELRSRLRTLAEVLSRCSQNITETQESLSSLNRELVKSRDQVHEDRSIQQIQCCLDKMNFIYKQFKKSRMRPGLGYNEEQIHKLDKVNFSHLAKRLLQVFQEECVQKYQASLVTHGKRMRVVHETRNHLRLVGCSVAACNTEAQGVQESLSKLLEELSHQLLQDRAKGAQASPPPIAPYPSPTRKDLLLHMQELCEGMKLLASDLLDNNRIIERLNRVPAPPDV

Tests used:
TBK1 = TBK1 (Homo sapiens, UniProt Q9UHD2); experiment: TBK Biochemical Assay; conditions: read-out: TBK1 IC50
Procedure: Example 482: TBK Biochemical Assay
(§1) Test compounds were transferred into Labcyte polypropylene 384 well plates (P055-25) and diluted to 3 mM using DMSO. 3 mM test compounds were dispensed using Labcyte ECHO dose response module into Greiner 784075 plates (columns 3-12 and 13-22, 10 point 1:4) so that high concentration was 30 uM final. 100 uM of a reference compound (1 uM final high concentration). Backfilling was performed if necessary so that all wells contain 1% DMSO final: […]
(§2) add 75 nl DMSO/well into columns 1, 2 and 24 using Labcyte Echo. add 75 nl 1.0 mM staurosporine/well into column 23 using Labcyte Echo ([…]) add 4.5 ul enzyme/well using multidrop dispenser add 3 ul substrate/well using multidrop dispenser incubate at 25° C. in Heidolph incubator for 90 min. add 7.5 ul 2× stop buffer using multidrop dispenser read on labchip ez reader II using TBK1.job
(§3) Raw data files were opened in the Caliper LabChip Reviewer program (Version 3.0.265.0 SP2) and peak assignments were adjusted to reflect “substrate first” with the software's post-run analysis options. A spline-fit baseline was applied using the software's analysis algorithm.

IKKε = IKKε (Homo sapiens, UniProt Q14164); experiment: IKKe Biochemical Assay; conditions: read-out: IKKε IC50
Procedure: as §1, with “(Greiner” for “Greiner”
as §2, with “C.” for “C. in Heidolph incubator”, “buffer” for “buffer using multidrop dispenser”, “IKKε. job” for “TBK1.job”
as §3

[1] = system: phosphorylation of the IRF-3 protein in MDA-MB-468 cells; experiment: pIRF3 immunocytochemistry cell based assay
Procedure: The purpose of the pIRF3 immunocytochemistry cell based assay was to identify small molecules which modulates TBK/IKKe kinase activity through on target substrate phosphorylation of the IRF-3 protein. On the first day of the experiment, MDA-MB-468 cells were plated in 384 well, black, clear-bottom, Poly D lysine coated plates at a density of 5000 cells/well in 45 ul of complete DMEM and allowed to adhere overnight. On the second day compounds were added to cells at a starting concentration of 10 uM with a serial dilution of 3-fold for a total of 10 points. The cells were incubated for 1 hr at 37° C. Cells were then stimulated with Poly(I:C) at a final concentration of 10 ug/ml, and were incubated for 2 hr at 37° C. Following the incubation, media was removed from the wells and the cells were fixed with 4% PFA for 15 min at RT. Cells were washed at least 3 times with PBS, and then permeabilized with ice-cold methanol for 10 min at RT. The washing step was repeated and the cells were then blocked using 10% goat serum/1% BSA, made up in PBS and allowed to incubate at RT for 1 hr. The cells were washed again and then treated with an anti-pIRF3 antibody at 4° C. overnight (1:250 dilution of Abcam ab76493 in PBS containing 1% BSA). On the third day the primary antibody was washed off and pIRF3 was detected by adding the secondary antibody conjugated to AlexaFluor488 (1:200 dilution of secondary antibody in PBS containing 1% BSA) for 1 hr at RT. Cells were washed and then counterstained with PI/RNase staining buffer for 15 min at RT and read on the Acumen Explorer laser scanning cytometer. The percentage of phosphorylation of the IRF-3 protein was calculated using the following algorithm, a modified version of the mean half width intensity (pIRF3 staining)/(PI staining or # of cells)×100%). IC50 curves were generated using the Genedata software.

[2] = read-out: pIRF3 IC50, Poly(I:C) stimulation

COc1cc(C(=O)N(C)CCO)cnc1-c1cc2nccc(-c3ccc(N4CC[C@@H](F)C4)c(C#N)c3)c2o1
IC50 (TBK1): < 100 nM | IC50 (IKKε): < 100 nM | IC50 [1, 2]: 100 to 1000 nM

COc1cc(C(=O)N2CCCCC2)ncc1-c1cc2nccc(-c3ccc(OC4CCOCC4)c(C#N)c3)c2o1
IC50 (TBK1; tested form: HCl): < 100 nM | IC50 (IKKε; tested form: HCl): < 100 nM | IC50 ([1]; read-out: pIRF3 IC50, Poly(I:C) stimulation, tested form: HCl): 100 to 1000 nM

COc1cc(C(=O)NC2C3COCC32)ncc1-c1cc2nccc(-c3ccc(N4CCC(F)C4)c(C#N)c3)c2o1 (centres unmarked)
IC50 (TBK1): < 100 nM | IC50 (IKKε): < 100 nM

COc1cc(C(=O)N2CCCCC2)ncc1-c1cc2nccc(-c3ccc(OC4CCOCC4)c(C#N)n3)c2o1
IC50 (TBK1): < 100 nM | IC50 (IKKε): < 100 nM | IC50 [1, 2]: < 100 nM

COc1cc(C(=O)N2CCCCN2)ncc1-c1cc2nccc(-c3ccc(OC4CCOCC4)c(C#N)c3)c2o1
IC50 (TBK1): < 100 nM | IC50 (IKKε): < 100 nM | IC50 [1, 2]: 100 to 1000 nM
